# Source: PubChem BioAssay AID1012 (Sanford-Burnham Center for Chemical Genomics, 2008)
# Sequences of proteins named here, by UniProt entry; tags and fusion partners are left off.
# UniProt P05186, whole entry: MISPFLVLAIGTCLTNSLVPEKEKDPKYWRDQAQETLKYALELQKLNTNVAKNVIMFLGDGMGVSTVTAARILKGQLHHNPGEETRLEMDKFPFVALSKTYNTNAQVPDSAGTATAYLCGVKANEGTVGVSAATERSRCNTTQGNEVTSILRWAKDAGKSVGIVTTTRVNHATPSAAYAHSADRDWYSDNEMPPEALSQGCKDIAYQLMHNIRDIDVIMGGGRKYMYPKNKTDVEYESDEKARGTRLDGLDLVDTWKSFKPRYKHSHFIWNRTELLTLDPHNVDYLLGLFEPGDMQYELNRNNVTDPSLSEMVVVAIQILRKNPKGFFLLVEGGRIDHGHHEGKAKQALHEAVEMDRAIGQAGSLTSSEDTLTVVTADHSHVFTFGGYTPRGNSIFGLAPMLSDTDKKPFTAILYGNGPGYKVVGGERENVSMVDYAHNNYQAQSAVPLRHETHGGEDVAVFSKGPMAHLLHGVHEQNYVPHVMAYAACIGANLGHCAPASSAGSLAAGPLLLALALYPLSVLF
# The list shows a part of the results, in another mix than the full data. The source made the active and inactive calls.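 How the source made its calls: active means tissue-nonspecific alkaline phosphatase inhibition above about 50% at 20 µM in the single-dose screen (limit read from the data); inactive means the rest.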
# Molecular target: Alkaline phosphatase, tissue-nonspecific isozyme (Homo sapiens) (UniProt P05186)
# Experiment: blockers of alkaline phosphatase TNAP activity – biochemical, luminescent, no phosphate acceptor, uHTS, primary screen (AID 1012);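 further: 0% = DMSO negative control and 100% = EDTA positive control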
# Conditions: purified TNAP, CDP-star luminescence, 30 min; at 20 µM; stronger effect = higher value
row,SMILES,inhibition
1,Cc1nc2ccc3ccccc3c2o1.O=[N+]([O-])c1cc([N+](=O)[O-])c(O)c([N+](=O)[O-])c1,inactive: -6.7%
2,CP(=O)(OCCOc1ccccc1)OCCOc1ccccc1,inactive: -7.3%
3,CP(=O)(Nc1ccc(Cl)cc1Cl)Oc1ccccc1 (centres undefined),inactive: -9.8%
4,Cc1cc(C)cc(OP(C)(=O)Nc2cccc(C(F)(F)F)c2)c1 (centres undefined),inactive: -1.1%
5,COc1ccc(OP(C)(=O)Nc2ccccc2Br)cc1 (centres undefined),inactive: -5.7%
6,COc1ccccc1OP(C)(=O)Nc1ccc(C)c(C)c1 (centres undefined),inactive: -7.7%
7,O=[N+]([O-])c1cc([N+](=O)[O-])c(Nc2ccccn2)c([N+](=O)[O-])c1,inactive: 31.6%
8,Cc1c(NP(C)(=O)Oc2ccc(C(C)C)cc2)c(=O)n(-c2ccccc2)n1C (centres undefined),inactive: 0.9%
9,CCc1ccc(OP(C)(=O)O)cc1,inactive: -10.1%
10,CP(=O)(Nc1ccccn1)Oc1ccccc1 (centres undefined),inactive: -9.5%
11,COc1ccccc1OP(C)(=O)Nc1ccc(C)cc1C (centres undefined),inactive: -6.6%
12,CN(C)CCOC(=O)C(O)(c1ccccc1)C1CCCC1 (centres undefined),inactive: 1.7%
13,COc1ccc(OP(C)(=O)Nc2ccccn2)cc1 (centres undefined),inactive: -17.2%
14,CP(=O)(Nc1ccc(Cl)cc1)Oc1ccc(F)cc1 (centres undefined),inactive: -9.6%
15,CC(C)(C)c1ccc(OP(C)(=O)O)cc1,inactive: 1%
16,COc1ccccc1OP(C)(=O)Nc1ccccc1Br (centres undefined),inactive: -9.2%
17,CN(C)C(=O)c1c([N+](=O)[O-])cc([N+](=O)[O-])cc1[N+](=O)[O-],inactive: -6.7%
18,CCN(CC)CC(O)COC(=O)C(O)(c1ccccc1)C1CCCCC1 (centres undefined),inactive: -9.4%
19,COc1ccc(OP(C)(=O)Nc2ccc(Br)cc2)cc1 (centres undefined),inactive: -9.8%
20,CP(=O)(Oc1ccccc1)N1CCOC1=O (centres undefined),inactive: -11%
21,CCc1ccc(OP(C)(=O)Nc2cccnc2)cc1 (centres undefined),inactive: -7.3%
22,COc1ccccc1OP(C)(=O)Nc1c(C)n(C)n(-c2ccccc2)c1=O (centres undefined),inactive: -13.6%
23,CP(=O)(OC12CC3CC(CC(C3)C1)C2)OC12CC3CC(CC(C3)C1)C2,inactive: -2.5%

row,SMILES,inhibition
1,CCOC(=O)c1ccc(NP(C)(=O)Oc2ccc(Cl)cc2)cc1 (centres undefined),inactive: -10.7%
2,O=[N+]([O-])c1cc([N+](=O)[O-])c(NCC2CCS(=O)(=O)C2)c([N+](=O)[O-])c1 (centres undefined),inactive: -2.4%
3,COc1ccc(OP(C)(=O)Nc2cccc(Br)c2)cc1 (centres undefined),inactive: -12.3%
4,COc1ccc(NP(C)(=O)Oc2ccccc2OC)cc1 (centres undefined),inactive: -8.7%
5,CN(C)CCOC(=O)C(O)(c1ccccc1)C1CCCCC1 (centres undefined),inactive: 3.4%
6,CP(=O)(Nc1ccc2c(c1)OCCO2)Oc1ccccc1 (centres undefined),inactive: -8%
7,Cc1ccccc1NP(C)(=O)Nc1ccccc1C,inactive: -5%
8,CCOP(C)(=S)SCC(=O)NC(C)(CC)C(=O)O (centres undefined),inactive: -4.4%
9,O=C(OCCN1CCN(CCOCc2ccccc2)CC1)C(O)(c1ccccc1)c1ccccc1,inactive: -8.2%
10,CC(C)c1ccc(OP(C)(=O)Nc2ccc(SC(F)(F)F)cc2)cc1 (centres undefined),inactive: -10.9%
11,CP(=O)(Nc1ccccc1F)Oc1ccccc1 (centres undefined),inactive: -8.1%
12,CCN(CC)CCCOC(=O)C(O)(c1ccccc1)C1CCCCC1 (centres undefined),inactive: -4%
13,CP(=O)(Nc1ccccc1)Oc1ccc(F)cc1 (centres undefined),inactive: -9.5%
14,COc1ccc(OP(C)(=O)Nc2ccc(SC(F)(F)F)cc2)cc1 (centres undefined),inactive: -2.8%
15,CCOC(=O)c1ccc(NP(C)(=O)Oc2ccc(F)cc2)cc1 (centres undefined),inactive: -6.4%
16,CC1=NCCc2c1[nH]c1ccccc21.O=[N+]([O-])c1cc([N+](=O)[O-])c(O)c([N+](=O)[O-])c1,inactive: -10.4%
17,CP(=O)(Nc1cccc(Br)c1)Oc1ccccc1 (centres undefined),inactive: -10.8%
18,Cc1cc(C)cc(OP(C)(=O)Nc2ccccn2)c1 (centres undefined),inactive: -10.8%
19,Cc1ccc(C)c(NP(C)(=O)Oc2ccccc2)c1 (centres undefined),inactive: -7.8%
20,Cc1cc(C)cc(OP(C)(=O)Nc2ccc(C)cc2C)c1 (centres undefined),inactive: -8.5%
21,CCOC(=O)c1ccc(NP(C)(=O)Oc2cc(C)cc(C)c2)cc1 (centres undefined),inactive: 2.5%
22,Cc1nc2ccc3ccccc3c2s1.O=[N+]([O-])c1cc([N+](=O)[O-])c(O)c([N+](=O)[O-])c1,inactive: -4%
23,O=[N+]([O-])c1cc([N+](=O)[O-])c(-n2nnc3ccccc32)c([N+](=O)[O-])c1,inactive: 10.9%

row,SMILES,inhibition
1,CN1CCCCC1COC(=O)C1(O)c2ccccc2CCc2ccccc21 (centres undefined),inactive: -0.7%
2,COc1ccccc1OP(C)(=O)Nc1c(C)cccc1C (centres undefined),inactive: 4.7%
3,CP(=O)(Nc1ccc(SC(F)(F)F)cc1)Oc1ccccc1 (centres undefined),inactive: -3.7%
4,CCCOc1ccc(NP(C)(=O)Oc2ccc(Cl)cc2)cc1 (centres undefined),inactive: -7.1%
5,CP(=S)(Nn1cnnc1)Oc1ccccc1 (centres undefined),inactive: -11%
6,COc1ccccc1OP(C)(=O)Nc1ccccc1 (centres undefined),inactive: -12.7%
7,CP(=O)(Nc1ccccc1Br)Oc1ccccc1 (centres undefined),inactive: -7.1%
8,CCOP(C)(=S)SCC(=O)NC(C)C(=O)O (centres undefined),inactive: -7.7%
9,CCOC(=O)c1ccc(NP(C)(=O)Oc2ccc(OC)cc2)cc1 (centres undefined),inactive: -6.3%
10,CP(=O)(Nc1ccccn1)Oc1ccc(Cl)cc1 (centres undefined),inactive: -7%
11,Cc1cccc(C)c1OP(C)(=O)Nc1ccc(SC(F)(F)F)cc1 (centres undefined),inactive: 1.2%
12,CP(=O)(Oc1ccccc1)OC(c1ccccc1)C(F)(F)F (centres undefined),inactive: -12.3%
13,CP(=O)(NC(=O)Nc1ccccc1)Oc1ccccc1 (centres undefined),inactive: -13.7%
14,Cc1cc(C)cc(OP(C)(=O)Nc2ccc(SC(F)(F)F)cc2)c1 (centres undefined),inactive: -10.4%
15,CCN(CC)CCCOC(=O)C(O)(c1ccccc1)c1ccccc1,inactive: -12.6%
16,CCOC(=O)c1ccc(NP(C)(=O)Oc2ccccc2)cc1 (centres undefined),inactive: -5.8%
17,COc1ccccc1OP(C)(=O)Nc1ccc(C)cc1 (centres undefined),inactive: -6.2%
18,COc1ccccc1OP(C)(=O)Nc1cc(Cl)ccc1C (centres undefined),inactive: -5.2%
19,COc1ccc(OP(C)(=O)Nc2cccc(F)c2)cc1 (centres undefined),inactive: -8.6%
20,Cc1cc(C)cc(OP(C)(N)=O)c1 (centres undefined),inactive: -16%
21,CC(C)(C)c1ccc(OP(C)(=O)Nc2ccc(SC(F)(F)F)cc2)cc1 (centres undefined),inactive: 18.5%
22,Cc1cccc(C)c1OP(C)(N)=O (centres undefined),inactive: -15.4%
23,O=[N+]([O-])c1ccc2c(c1)C=Nc1ccccc1O2,inactive: -2.4%
